For orientation: pKi means the Ki on a negative log10 scale, so that one unit is a factor of ten.

The chains behind the UniProt entries cited, without tags or fusion partners. Residues count along the entry.
UniProt P00800, 233-548 limits assumed: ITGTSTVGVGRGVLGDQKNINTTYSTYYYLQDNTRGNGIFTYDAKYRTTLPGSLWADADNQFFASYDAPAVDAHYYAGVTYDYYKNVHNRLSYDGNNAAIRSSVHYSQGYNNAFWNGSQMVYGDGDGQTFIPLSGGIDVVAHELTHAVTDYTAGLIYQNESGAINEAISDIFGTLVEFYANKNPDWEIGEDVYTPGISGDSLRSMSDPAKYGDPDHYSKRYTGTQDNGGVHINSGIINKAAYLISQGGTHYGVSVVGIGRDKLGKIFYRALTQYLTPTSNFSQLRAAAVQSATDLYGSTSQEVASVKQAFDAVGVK

Drawing on patent publication US5420328A, this text covers Ki for 4 compounds.

pKi: −log10 of the molar value. Like-named read-outs stand apart in the source and are kept apart here.

The experiment has as its target thermolysin (Bacillus thermoproteolyticus, UniProt P00800). Put plainly: Ki values for thermolysin of peptidylphosphonates. The settings on record: read-out: Ki values for thermolysin.

Take `CC(C)C[C@H](OP(=O)(O)CNC(=O)OCc1ccccc1)C(=O)N[C@@H](C)C(=O)O`: the pKi was 4.89.
For the compound `CC(C)C[C@H](OP(=O)(O)[C@H](C)NC(=O)OCc1ccccc1)C(=O)N[C@@H](C)C(=O)O`, the negative logarithm of the Ki (pKi) was 5.74.
In the case of `CC(C)CC(NC(=O)OCc1ccccc1)P(=O)(O)O[C@@H](CC(C)C)C(=O)N[C@@H](C)C(=O)O` (stereo partly drawn), the pKi runs as follows: (D isomer (L/D isomers)) 4.38; (L isomer (L/D isomers)) 6.17.
The like results for `CC(C)C[C@H](OP(=O)(O)C(Cc1ccccc1)NC(=O)OCc1ccccc1)C(=O)N[C@@H](C)C(=O)O` (stereo partly drawn) were, in that order, 4.52 and 7.35.
